From patent publication US20050136015A1, “Topical use of halosalicylic acid derivatives” (priority 2003, published 2005)

Experiments:
Test in all cases: MLC (minimal lethal concentration) test
Assay type in all cases: cell-based
[1] = test system: Pseudomonas aeruginosa
[2] = test system: Staphylococcus epidermidis
[3] = test system: Escherichia coli
[4] = test system: Candida albicans
[5] = test system: Aspergillus niger

O=C(O)c1ccccc1O [Salicylic Acid, salicylic acid]
MLC, % Concentration for Bacterioidal Activity [1]: 0.0625%
MLC, % Concentration for Bacterioidal Activity [2]: 0.125%
MLC, % Concentration for Bacterioidal Activity [3]: 0.125%
MLC, % Concentration for Bacterioidal Activity [4]: 0.25%
MLC, % Concentration for Bacterioidal Activity [5]: 0.25%
